Screening data: PubChem, ICCB-Longwood Screening Facility, Harvard Medical School
Shown are actives, neighbours in structure and some others; about 0.46% of the full set was active somewhere.
HCMV UL50-53 inh: inhibitors of HCMV UL50-UL53 nuclear egress complex interaction; inhibition, % (test concentration not listed); actives 0.15% (n = 190,000); AID 1918969; HTRF UL50-UL53 interaction, normalized percent inhibition; in the data active means inhibition above about 27%, passing the limit was not always enough
GIV Gai3 FP: blocks GIV peptide binding to rat Galpha-i3. P08753. Galpha-i3/FITC-GIV peptide fluorescence polarization, 90 min; hits give low values; scaled: aluminum fluoride 0%, vehicle 100%. percent of control (FP), % (concentration not given with the values). actives 0.42% (n = 210,000). AID 1224905;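 active = replicate mean at 85% of control or lower, very high polarization wells dropped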;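 also: wells of about 15 µL received 100 nL stock; the first replicate is given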
* hit, by the source's call; . = no result given.

[1] COc1cc(OC)c(OC)cc1/C=C1\N=C(c2cncc(Br)c2)OC1=O
[2] COc1ccc(Br)cc1/C=C1\N=C(c2cc(OC)c(OC)c(OC)c2)OC1=O
[3] COc1ccc(Br)cc1/C=C1/N=C(c2ccc(OC)c(OC)c2)OC1=O
[4] N#Cc1cc2ccc(O)cc2oc1=N
[5] O=c1oc2cc(O)ccc2cc1-c1cc(F)cc(F)c1
entry no.	1	2	3	4	5
HCMV UL50-53 inh	.	.	.	-28.0	-35.6
GIV Gai3 FP	-8.4*	107.9	-11.5*	-3.8*	115.2

[6] COc1ccc(/C(O)=C(/C#N)c2nc3ccccc3s2)cc1
[7] COc1ccc(N2CCN(/C=C(\C#N)c3nc4ccccc4s3)CC2)cc1
[8] COc1cc(OC)c(NC(=O)N2CCCC2c2cc(C)no2)cc1Cl (stereo not drawn)
[9] Cc1nc(C(=O)NC2(O)C(=O)c3ccccc3C2=O)cs1
[10] CSc1ncccc1C(=O)NC1(O)C(=O)c2ccccc2C1=O
entry no.	6	7	8	9	10
HCMV UL50-53 inh	-10.1	5.3	.	59.9*	56.1*
GIV Gai3 FP	.	-61.0*	108.3	94.9	93.1

[11] O=C(NC1(O)C(=O)c2ccccc2C1=O)c1cnn(-c2ccccc2)c1C(F)(F)F
[12] CSc1ncccc1C(=O)Nc1ccccc1C
[13] Cc1nc(C(=O)N(Cc2cccnc2)Cc2ccc3c(c2)OCO3)cs1
[14] COc1ccc(CNC(=O)c2c(-n3cccc3)sc3c2CCCC3)cc1
[15] O=C(Cn1cc(-c2nnc(CN3CCCCC3)o2)c2ccccc21)NCCCc1ccccc1
entry no.	11	12	13	14	15
HCMV UL50-53 inh	49.4	.	3.2	-0.9	.
GIV Gai3 FP	87.4	103.9	.	.	102.1

[16] COc1ccc(-c2cc(=O)oc3cc(O)c(Cl)cc23)cc1
[17] O=c1cc(C(F)(F)F)c2cc(Cl)c(O)cc2o1
[18] Cc1cccc(NS(=O)(=O)c2ccc3c(c2)oc(=O)n3C)c1
[19] N/C(Cc1nc2ccccc2s1)=N\O
[20] c1ccc2sc(CCc3nc4ccccc4s3)nc2c1
entry no.	16	17	18	19	20
HCMV UL50-53 inh	-75.2	-43.9	.	51.8*	-9.4
GIV Gai3 FP	100.6	-94.0*	103.0	126.8	.

[21] CCOC(=O)c1cn[nH]c1S(=O)(=O)Nc1c(C)cccc1C
[22] N#C/C(=C/c1cc(Br)c(Br)o1)c1ccccc1
[23] CC[C@@]1(O)C(=O)OCc2c1cc1n(c2=O)Cc2cc3c(CN(C)C)c(O)ccc3nc2-1
[24] CCCCc1cc(=O)oc2c(CN(C)C)c(O)ccc12
[25] COc1ccc(C2C3=C(CC(C)(C)CC3=O)Nc3ccccc3N2C(=O)NC2CCCC2)cc1 (stereo not drawn)
entry no.	21	22	23	24	25
HCMV UL50-53 inh	-20.5	-23.1	-68.9	-29.6	.
GIV Gai3 FP	95.9	.	-6.9*	105.6	101.9

[26] CCOC(=O)C1=C(C)N=c2s/c(=C/c3ccc(N4CCOCC4)o3)c(=O)n2C1c1c(OC)ccc2ccccc12 (stereo not drawn)
[27] Cc1ccc2nc(-c3ccc(NC(=O)c4c(O)c5ccccc5[nH]c4=O)cc3)sc2c1
[28] Oc1ccc(C2Nc3ccccc3C(c3ccccc3)(c3ccccc3)O2)cc1O (stereo not drawn)
[29] COc1ccc(Cl)cc1-n1c(=S)sc2c(=O)[nH]c(SCc3cc(=O)n4cc(Cl)ccc4n3)nc21
[30] CCOC(=O)N1CCC(NC(=O)C2CCCN(c3ncnc4c3sc3cccc(F)c34)C2)CC1 (stereo not drawn)
entry no.	26	27	28	29	30
HCMV UL50-53 inh	.	.	.	.	.
GIV Gai3 FP	103.8	102.7	103.8	109.0	103.1

[31] CCOC(=O)N1CCC(NC(=O)C2CCN(c3ncnc4c3sc3cccc(F)c34)CC2)CC1
[32] COCCn1c(NN)nc2ccsc2c1=O
[33] O=C1S/C(=C\c2ccc(N3CCOCC3)o2)C(=O)N1Cc1ccc(F)cc1
[34] O=C(CN1C(=O)S/C(=C\c2ccc(N3CCOCC3)o2)C1=O)Nc1ccccc1F
[35] COc1ccccc1Oc1ccc(C(F)(F)F)cc1NC(=O)Cn1c2ccccc2c(=O)c2ccccc21
entry no.	31	32	33	34	35
HCMV UL50-53 inh	53.4*	.	-32.5	-26.3	2.6
GIV Gai3 FP	101.4	101.1	258.5	-19.3*	105.0

[36] CC1(C)C(=O)NC2=C1C(=O)C(=O)c1ccccc12
[37] O=C1C2=C(NC3=C(C(=O)c4ccccc43)C23C(=O)Nc2ccccc23)c2ccccc21
[38] CCCC(=O)NC(C)(C)c1nc2c(c(C(=O)NC)n1)OCO2
[39] COc1ccc(Nc2nc(SC)nc(-c3ccccc3)c2C#N)cc1OC
[40] CSc1nc(Nc2cccc(C)c2)c(C#N)c(-c2ccccc2)n1
entry no.	36	37	38	39	40
HCMV UL50-53 inh	107.3*	-10.4	.	-13.3	48.4*
GIV Gai3 FP	.	106.7	105.5	99.5	102.4

[41] N#CC1(C#N)[C@H](c2cccc(F)c2)[C@@H](C(=O)c2ccccc2)N2c3ccc(Cl)cc3C=C[C@@H]21
[42] CN(C)C=Nc1ccc(OCc2ccccc2)cc1
[43] Cc1ccc(Cn2cc(C(=O)Nc3ccc(Br)cc3)ccc2=O)cc1
[44] CCOc1cc(/C=C2/C(=O)N(c3ccccc3)N=C2C)ccc1OS(=O)(=O)c1ccccc1
[45] COc1cc(/C=C2/C(=O)N(c3ccccc3)N=C2C)ccc1OS(=O)(=O)c1ccccc1[N+](=O)[O-]
entry no.	41	42	43	44	45
HCMV UL50-53 inh	.	-22.6	.	60.0*	-34.0
GIV Gai3 FP	113.7	.	109.0	103.8	105.9

[46] COc1cc(NC(=NCc2ccncc2)NC(=O)c2cccc(N(C)C)c2)cc(OC)c1
[47] COc1ccc(N=Cc2sc3ccccc3c2Cl)cc1
[48] Cc1ccccc1N=Cc1sc2ccccc2c1O
[49] COc1ccccc1N=Cc1sc2ccccc2c1O
[50] CCOc1ccc(N=Cc2sc3ccccc3c2O)cc1
entry no.	46	47	48	49	50
HCMV UL50-53 inh	-3.9	26.8	-15.2	-32.6	-24.5
GIV Gai3 FP	103.3	.	157.5	-53.3*	-14.8*

[51] COc1ccccc1CNC(=O)Nc1noc2c1COc1ccccc1-2
[52] CCn1c(C)[n+](CC)c2ccc(Cl)cc21
[53] CN1/C(=C\C(=O)c2ccccc2)C(C)(C)c2ccccc21
[54] CN1/C(=C/C=C/C=C/C=[N+](C)c2ccccc2)C(C)(C)c2ccccc21
[55] CCn1c(/C=C/C=C2\N(C)c3ccccc3C2(C)C)[n+](Cc2ccccc2)c2ccccc21
entry no.	51	52	53	54	55
HCMV UL50-53 inh	.	7.0	23.0	.	.
GIV Gai3 FP	103.0	.	.	257.7	-32.2*

4 records drawn at random from the list so far:
[54] CN1/C(=C/C=C/C=C/C=[N+](C)c2ccccc2)C(C)(C)c2ccccc21
[55] CCn1c(/C=C/C=C2\N(C)c3ccccc3C2(C)C)[n+](Cc2ccccc2)c2ccccc21
[52] CCn1c(C)[n+](CC)c2ccc(Cl)cc21
[53] CN1/C(=C\C(=O)c2ccccc2)C(C)(C)c2ccccc21
entry no.	54	55	52	53
HCMV UL50-53 inh	.	.	7.0	23.0
GIV Gai3 FP	257.7	-32.2*	.	.

(further entries)
[56] CC[n+]1c(/C=C/C=C2\N(C)c3ccccc3C2(C)C)n(-c2ccccc2)c2cc(Cl)ccc21
[57] CC[n+]1c(/C=C/C=C2\N(C)c3ccccc3C2(C)C)n(-c2ccccc2)c2ccc(C)cc21
[58] CC1CCN(S(=O)(=O)c2ccc(CNC(=O)c3ccsc3)s2)CC1
[59] CCc1cc(=O)oc2cc(O)cc(O)c12
[60] Cc1cccc(Cn2ccn(Cc3ccccc3)c(=O)c2=O)c1
entry no.	56	57	58	59	60
HCMV UL50-53 inh	.	.	.	1.6	-25.0
GIV Gai3 FP	-32.2*	-32.2*	101.4	109.8	96.8

[61] O=C(NCC(c1cccnc1)N1CCN(Cc2ccccc2)CC1)c1ccccc1 (stereo not drawn)
[62] O=c1cc(-c2ccccc2)nc(-c2ccccc2)o1
[63] CN(C)c1ccc(-c2nc(-c3cccc(I)c3)cc(=O)o2)cc1
[64] COc1ccc(/C=C2/SC(=O)N(CCc3nnc(N)s3)C2=O)cc1
[65] CCCCOc1ccc(C2CC(=O)Nc3c2c(C)nn3-c2ccc3nnc(C)n3n2)cc1OCC (stereo not drawn)
entry no.	61	62	63	64	65
HCMV UL50-53 inh	.	-5.2	.	-59.7	.
GIV Gai3 FP	105.7	101.3	-18.2*	96.3	75.2*

[66] CCCOc1ccc(C2CC(=O)Nc3c2c(C)nn3-c2ccc3nnc(C)n3n2)cc1OCC (stereo not drawn)
[67] CCc1cc(C(=O)Cc2nc(C)cs2)c(O)cc1O
[68] CCOc1ccc(-n2c(N)c(S(=O)(=O)c3ccccc3)c3nc(C#N)c(C#N)nc32)cc1
[69] CC1Cc2ccccc2N1S(=O)(=O)c1ccc2[nH]c(=O)[nH]c2c1 (stereo not drawn)
[70] Cc1[nH]c(=O)[nH]c(=O)c1S(=O)(=O)N1c2ccccc2CC1C (stereo not drawn)
entry no.	66	67	68	69	70
HCMV UL50-53 inh	.	-59.7	-7.3	-10.3	.
GIV Gai3 FP	104.6	.	.	.	-73.1*

[71] COc1ccc(OC)c(C2=NN(c3nc(C)cs3)C(c3ccc(Cl)cc3)C2)c1 (stereo not drawn)
[72] CN1c2cc(Cl)ccc2-c2nc(SCC(=O)Nc3cc(F)ccc3F)ncc2S1(=O)=O
[73] CN1c2cc(Cl)ccc2-c2nc(SCC(=O)Nc3nccs3)ncc2S1(=O)=O
[74] CN1c2cc(Cl)ccc2-c2nc(SCC(=O)Nc3ccc(F)cc3F)ncc2S1(=O)=O
entry no.	71	72	73	74
HCMV UL50-53 inh	-33.4	78.2*	36.4*	.
GIV Gai3 FP	101.1	109.9	106.7	103.8
